What was measured:
mTORC1 = mTORC1 (Homo sapiens, UniProt P42345+P62942); assay: Inhibition assay for mTORC1: phosphorylation of pS6K at Thr389, AlphaLISA SureFire in PC3 cells; type: cell-based; settings: 24 hours treatment, analogs substituted at C40 and C16 (C16 diastereomer mixtures not isolated)
mTORC2 = mTORC2 (Homo sapiens, UniProt P42345+P62942); assay: Inhibition assay for mTORC2: phosphorylation of pAkt at Ser473, AlphaLISA SureFire in PC3 cells; type: cell-based; settings: 24 hours treatment, analogs substituted at C40 and C16 (C16 diastereomer mixtures not isolated)

Structure (SMILES) | pIC50 mTORC1 (mTORC1) | pIC50 mTORC2 (mTORC2)
CO[C@@H]1C[C@H](C[C@@H](C)[C@@H]2CC(=O)[C@H](C)/C=C(\C)[C@@H](O)[C@@H](OC)C(=O)[C@H](C)C[C@H](C)/C=C/C=C/C=C(\C)C(OC[C@@H](C)O)C[C@@H]3CC[C@@H](C)[C@@](O)(O3)C(=O)C(=O)N3CCCC[C@H]3C(=O)O2)CC[C@H]1OCCCO (stereo partly drawn) | B (8.5 to 9.5 as B) | A (PIC50 for mTORC2 of <5 as A)
CO[C@@H]1C[C@H](C[C@@H](C)[C@@H]2CC(=O)[C@H](C)/C=C(\C)[C@@H](O)[C@@H](OC)C(=O)[C@H](C)C[C@H](C)/C=C/C=C/C=C(\C)C(OCCCO)C[C@@H]3CC[C@@H](C)[C@@](O)(O3)C(=O)C(=O)N3CCCC[C@H]3C(=O)O2)CC[C@H]1OCCCO (stereo partly drawn) |  | A (PIC50 for mTORC2 of <5 as A)

Reference: US12565505B2, “mTORC modulators and uses thereof” (Aeovian Pharmaceuticals, Inc., priority 2019, dated 2026)
